Measurements published in patent publication US20200023067A1, “DUAL-ACTION ELAFIBRANOR METFORMIN SALT FOR TREATING OBESITY ASSOCIATED WITH NON-ALCOHOLIC STEATOHEPATITIS (NASH) AND […]” (NASHPHARM, priority 2016, published 2020).

Test: Stability after exposure to light and temperature, by UPLC MS
Format: physicochemical
Procedure: The products were exposed to daylight and to ambient temperature.
The reference samples for their part are stored cool (2°-8° C.), protected from light by aluminum paper and under inert gas for the solid product.

Degradation products detected (after 14 days of storage, UPLC MS): < 5% | Change in colouring of the powder (powder exposed to daylight, yellow into darker yellow): appreciable change in colouring
Substance: salt of metformin and of 2-[2,6 dimethyl-4-[3-[4-(methylthio)phenyl]-3-oxo-1(E)-propenyl]phenoxyl]-2-methylpropanoic acid [Elafibranor (GFT505) metformin salt]
